Test results: article PMC12022980, “Rational Design of PROTAC Linkers Featuring Ferrocene as a Molecular Hinge to Enable Dynamic Conformational Changes” (Journal of the American Chemical Society, 2025)

Chains of the proteins cited; added tags and fusions are not shown.
UniProt Q15059, whole entry: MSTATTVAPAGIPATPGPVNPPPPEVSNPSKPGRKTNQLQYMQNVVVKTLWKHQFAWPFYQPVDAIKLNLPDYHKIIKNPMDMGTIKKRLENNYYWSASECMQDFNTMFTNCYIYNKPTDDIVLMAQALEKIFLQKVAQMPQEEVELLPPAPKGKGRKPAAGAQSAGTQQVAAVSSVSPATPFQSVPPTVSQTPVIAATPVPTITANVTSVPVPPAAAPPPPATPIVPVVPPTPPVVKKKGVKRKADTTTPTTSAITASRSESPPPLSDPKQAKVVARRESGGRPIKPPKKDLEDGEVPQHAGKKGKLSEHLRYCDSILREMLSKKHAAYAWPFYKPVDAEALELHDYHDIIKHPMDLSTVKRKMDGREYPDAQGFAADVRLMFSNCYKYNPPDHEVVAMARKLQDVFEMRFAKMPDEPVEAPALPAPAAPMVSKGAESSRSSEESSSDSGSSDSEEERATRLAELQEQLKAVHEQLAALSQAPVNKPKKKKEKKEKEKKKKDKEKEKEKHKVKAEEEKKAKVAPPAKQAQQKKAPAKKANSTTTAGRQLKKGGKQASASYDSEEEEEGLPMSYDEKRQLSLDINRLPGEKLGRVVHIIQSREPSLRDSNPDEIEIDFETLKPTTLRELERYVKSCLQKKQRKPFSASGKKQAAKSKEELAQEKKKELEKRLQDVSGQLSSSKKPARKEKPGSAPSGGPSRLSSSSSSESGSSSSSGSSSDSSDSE
UniProt P25440, whole entry: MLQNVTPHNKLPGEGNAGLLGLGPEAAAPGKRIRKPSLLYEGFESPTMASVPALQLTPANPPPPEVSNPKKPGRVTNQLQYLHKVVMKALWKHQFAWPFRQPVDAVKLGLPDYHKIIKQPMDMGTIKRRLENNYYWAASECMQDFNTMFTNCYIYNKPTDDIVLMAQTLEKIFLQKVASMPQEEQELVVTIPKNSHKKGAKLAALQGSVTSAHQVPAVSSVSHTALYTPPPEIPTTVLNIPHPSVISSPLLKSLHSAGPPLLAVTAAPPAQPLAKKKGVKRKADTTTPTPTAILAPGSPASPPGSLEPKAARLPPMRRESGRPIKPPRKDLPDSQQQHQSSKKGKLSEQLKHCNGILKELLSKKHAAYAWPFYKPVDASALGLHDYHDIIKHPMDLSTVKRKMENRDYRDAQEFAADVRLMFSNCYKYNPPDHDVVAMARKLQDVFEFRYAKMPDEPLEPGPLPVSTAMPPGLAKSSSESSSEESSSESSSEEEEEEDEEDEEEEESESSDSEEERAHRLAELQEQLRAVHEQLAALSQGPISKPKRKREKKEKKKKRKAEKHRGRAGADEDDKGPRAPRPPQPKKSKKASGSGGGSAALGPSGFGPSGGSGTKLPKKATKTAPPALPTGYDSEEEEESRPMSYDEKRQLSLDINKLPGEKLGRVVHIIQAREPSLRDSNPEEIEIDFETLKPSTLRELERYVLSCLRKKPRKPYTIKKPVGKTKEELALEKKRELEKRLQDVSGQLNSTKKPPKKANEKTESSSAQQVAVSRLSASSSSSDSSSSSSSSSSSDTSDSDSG

Tests used:
[1] = biological target: HiBiT-BRD3 (Homo sapiens, UniProt Q15059); conditions: other cell line
[2] = biological target: T1, HiBiT-tagged BRD4 (Homo sapiens, UniProt O60885); experiment: Lytic HiBiT-BET degradation assay; format: cell-based; conditions: HEK293, read-out: Dmax at 1 μM BRD4
T1 construct: host or cells: HEK293 cell line expressing HiBiT-tagged BRD4
Description: (§1) room temperature and protected from light. Thereafter, the membranes were washed with TBS-T three times for 10 min, and protein bands were acquired using a ChemiDoc MP imaging system (Bio-Rad). Band quantification was performed using Image Lab software and reported as ratio of each protein band relative to […]
(§2) Peak elution was monitored using ultraviolet absorbance at 280 nm.
(§3) Each treatment was conducted in biological duplicates with technical duplicates for each. […]
(§4) manufacturer's instructions, was added to each well. […]
(§5) to ensure complete cell lysis. Luminescence was recorded using the GloMax® Ultrasensitive Luminescence Protocol for 96-well plates.

[3] = biological target: T2, HiBiT-tagged BRD3 (Homo sapiens, UniProt Q15059); experiment: Lytic HiBiT-BET degradation assay; format: cell-based; conditions: HEK293, read-out: Dmax at 1 μM BRD3
T2 construct: host or cells: HEK293 cell line expressing HiBiT-tagged BRD3
Description: as §1, §2, §3, §4, §5

[4] = biological target: T3, HiBiT-tagged BRD2 (Homo sapiens, UniProt P25440); experiment: Lytic HiBiT-BET degradation assay; format: cell-based; conditions: HEK293, read-out: Dmax at 1 μM BRD2
T3 construct: host or cells: HEK293 cell line expressing HiBiT-tagged BRD2
Description: as §1, §2, §3, §4, §5

`Cc1ncsc1-c1ccc(CNC(=O)C2CC(O)CN2C(=O)C(NC(=O)COCCOCCOCCNC(=O)CC2N=C(c3ccc(Cl)cc3)c3c(sc(C)c3C)-n3c(C)nnc32)C(C)(C)C)cc1` (stereo not shown) [MZ1] was tested, and the “t1/2 BRD3” value [1] was 52.8 min, the Dmax at 1 µM [2] was 95% and the Dmax at 1 µM [3] was 94%. It also gave a Dmax at 1 µM [4] of 98%.
